For two molecules, IC50 results are on record in ChEMBL document CHEMBL1155847, “Novel indoline-based acyl-CoA:cholesterol acyltransferase inhibitor with antiperoxidative activity: improvement of physicochemical properties and biological activities by introduction of carboxylic acid” (J Med Chem, 2008).

The structures appear in SMILES notation.

This assay deals with T1, Acyl-CoA:cholesterol acyltransferase (Oryctolagus cuniculus, UniProt Q95214).
T1 sequence (Q95214 whole entry): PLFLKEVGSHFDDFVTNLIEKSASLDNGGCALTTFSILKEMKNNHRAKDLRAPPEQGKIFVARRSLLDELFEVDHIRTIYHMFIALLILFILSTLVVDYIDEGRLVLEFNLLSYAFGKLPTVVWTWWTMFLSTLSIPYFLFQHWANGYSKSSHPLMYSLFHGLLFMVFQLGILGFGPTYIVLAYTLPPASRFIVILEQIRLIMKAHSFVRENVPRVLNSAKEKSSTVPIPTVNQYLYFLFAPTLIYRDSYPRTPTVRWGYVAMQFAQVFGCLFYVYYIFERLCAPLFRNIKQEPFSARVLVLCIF
Nature of the assay: Inhibition of normocholesterolemic rabbit liver ACAT. The method in brief: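 Liver from normocholesterolemic male Japanese White rabbits homogenized in sucrose/phosphate/EDTA/dithioerythritol buffer pH 7.4. Microsomes collected by 12000g then 105000g spins. Microsomes in 154 mM phosphate pH 7.4 with BSA, preincubated 5 min at 37 °C with compound. Then 30 nmol [1-¹⁴C]oleoyl-CoA added, 20 min at 37 °C. Cholesteryl ester extracted and separated by TLC. IC50 from duplicate tubes, mean of 3-5 experiments.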

Consider `CCCCCCCCN1CCc2c(C)c(CN)c(C)c(NC(=O)C(C)(C)C)c21`, for which half-maximal inhibition (IC50) was put at 1100 nM.

For `CCCCCCCCN1CCc2c(C)cc(C)c(NC(=O)C(C)(C)C)c21`, the half-maximal inhibitory concentration (IC50) is 120 nM.

Broadly, the IC50 is the midpoint of a concentration-inhibition curve.
